Source: publication PMC11990504

Molecular target: tKeima (UniProt Q1JV72)
Experiment: crystal structure; tKeima crystals grown spontaneously at 4 °C in 10 mM Tris-HCl pH 8.0, 200 mM NaCl, then soaked repeatedly in 0.1 M sodium acetate pH 4.0, 200 mM NaCl; data at 100 K; two molecules in the asymmetric unit, tetramer formed with symmetry mates; interfaces analysed with PISA

Substance: tKeima (from UniProt Q1JV72 1-222) (natural protein)
- stoichiometry N: 4
